Blank lines part the entries; values can stand above or below the substance they belong to.
How the values were obtained:
antithrombin III [1] = biological target: antithrombin III (UniProt P01008); experiment: inhibition of thrombin by antithrombin III, 0.5 USP units/mL heparin, pH 7.4, 37 °C
antithrombin III [2] = biological target: antithrombin III (UniProt P01008); experiment: inhibition of thrombin by antithrombin III with heparin
antithrombin III [3] = biological target: antithrombin III (UniProt P01008); experiment: calculated from kon for antithrombin III of wild-type and mutants
protein C = protein C (UniProt P04070); experiment: cell-based or functional assay

- kon (antithrombin III [1]): 1e+06 M⁻¹ s⁻¹
Substance: variant thrombin E217A (from UniProt P00734 328-363; P00734 364-622) (enzyme)

- fold reduction in the rate of inactivation against wild-type (antithrombin III [2]): 3000 fold
- kon (antithrombin III [1]): 4000 M⁻¹ s⁻¹
- ΔGc (coupling free energy between the W215A and E217A mutations) (antithrombin III [3]): 1.5 kcal/mol
Substance: variant thrombin W215A/E217A (WE) (from UniProt P00734 364-622) (enzyme; other documents disagree on this pair)

- fold loss against wild-type (antithrombin III [2]): 25 fold
- fold reduction against wild-type (antithrombin III [2]): 20 fold
- kon (antithrombin III [1]): 560000 M⁻¹ s⁻¹
Substance: variant thrombin W215A (from UniProt P00734 364-622) (enzyme; other documents disagree on this pair)

- progress curve of protein C activation with 100 nM rabbit thrombomodulin against wild-type (protein C): 7 fold
Substance: variant thrombin W215A/E217A (WE) (from UniProt P00734 364-622) (enzyme)

- kon (antithrombin III [1]): 1.3e+07 M⁻¹ s⁻¹
Substance: wild-type human α-thrombin (from UniProt P00734 328-363; P00734 364-622) (enzyme; other documents disagree on this pair)
